# Reference: patent US20070172933A1, “Thermally stable amidases” (priority 2003, published 2007)
# Tested on: amidase
# Assay: Substrate specificity of the isolated amidase (hydrolysis assay)
# Assay type: biochemical, Pseudonocardia thermophila
# Protocol: To carry out the hydrolysis assay, where not mentioned otherwise, use was made of a 5 mM benzamide solution in 500 μl of a 60 mM K-Na phosphate buffer, pH 7.2. The enzymatic reaction proceeded for one hour at 70° C. with addition of 5 μg of the enzyme. The reaction was stopped by cooling the reaction solution on ice. […] One unit (U) of amidase activity is defined as the amount of enzyme which catalyzes the formation of 1 μmol of benzoic acid per minute.
# The substrate specificity of the amidase was tested at three different temperatures taking into account the substrate used in each case. For hydrolysis of amino acid amides, the reaction mixture was reacted for 3 h at 30° C., in the case of the aliphatic and cyclic amides 1 h at 50° C., and for aromatic amide substrates 1 h at 70° C. The enzymatic activity was then determined as described above. The control used was each batch without enzyme.
smiles,measurement,value
NC(=O)c1ccc(O)cc1 [p-hydroxybenzamide],Specific activity,12.1 µmol/min/mg
